{"sequences": {"note": "By UniProt entry, the sequences of proteins in these tests, tags left out. Residues count along the entry.", "UniProt Q00960, 27-1482": "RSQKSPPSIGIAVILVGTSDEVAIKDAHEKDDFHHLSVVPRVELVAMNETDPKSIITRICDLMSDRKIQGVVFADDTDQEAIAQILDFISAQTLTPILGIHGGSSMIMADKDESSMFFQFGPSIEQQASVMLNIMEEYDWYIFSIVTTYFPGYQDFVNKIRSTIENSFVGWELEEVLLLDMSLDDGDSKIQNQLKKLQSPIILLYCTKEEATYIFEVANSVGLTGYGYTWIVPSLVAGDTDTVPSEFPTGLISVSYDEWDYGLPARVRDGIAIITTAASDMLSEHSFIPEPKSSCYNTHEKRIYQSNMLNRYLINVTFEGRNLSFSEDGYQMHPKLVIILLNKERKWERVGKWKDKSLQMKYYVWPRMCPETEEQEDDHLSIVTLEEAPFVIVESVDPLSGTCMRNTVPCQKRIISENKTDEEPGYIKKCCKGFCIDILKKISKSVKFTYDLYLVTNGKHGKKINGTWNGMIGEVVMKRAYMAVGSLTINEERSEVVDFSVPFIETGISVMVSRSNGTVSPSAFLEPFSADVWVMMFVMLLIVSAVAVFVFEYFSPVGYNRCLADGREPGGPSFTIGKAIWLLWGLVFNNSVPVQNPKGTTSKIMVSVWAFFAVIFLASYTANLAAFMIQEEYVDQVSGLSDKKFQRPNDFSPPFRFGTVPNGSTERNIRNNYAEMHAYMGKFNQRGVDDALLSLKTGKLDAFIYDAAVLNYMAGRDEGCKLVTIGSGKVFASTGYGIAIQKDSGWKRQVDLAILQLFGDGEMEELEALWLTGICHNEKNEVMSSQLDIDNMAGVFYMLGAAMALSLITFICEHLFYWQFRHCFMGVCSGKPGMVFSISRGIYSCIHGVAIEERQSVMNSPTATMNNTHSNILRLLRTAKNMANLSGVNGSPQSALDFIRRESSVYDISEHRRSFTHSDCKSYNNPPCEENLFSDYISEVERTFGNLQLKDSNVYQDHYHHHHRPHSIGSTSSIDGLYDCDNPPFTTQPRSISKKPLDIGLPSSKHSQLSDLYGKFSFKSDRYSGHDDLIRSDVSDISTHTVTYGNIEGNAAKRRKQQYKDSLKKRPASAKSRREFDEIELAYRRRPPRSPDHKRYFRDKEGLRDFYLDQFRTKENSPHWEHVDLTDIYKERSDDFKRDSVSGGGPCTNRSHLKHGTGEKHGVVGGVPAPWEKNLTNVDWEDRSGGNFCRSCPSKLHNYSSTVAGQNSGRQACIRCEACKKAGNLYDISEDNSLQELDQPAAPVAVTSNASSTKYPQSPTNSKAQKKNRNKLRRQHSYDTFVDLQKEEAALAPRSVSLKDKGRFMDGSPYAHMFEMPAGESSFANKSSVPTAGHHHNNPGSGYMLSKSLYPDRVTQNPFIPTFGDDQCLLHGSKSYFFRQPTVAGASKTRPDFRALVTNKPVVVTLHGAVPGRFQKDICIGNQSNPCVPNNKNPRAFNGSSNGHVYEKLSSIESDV"}, "source": "paper PMC10076467", "about": "(EJNMMI Research, 2023)", "target": "T1, GluN2B receptors (Rattus norvegicus, UniProt P35439+Q00960)", "T1 construct": "from tissue; host or cells: brain of living male rats (PET imaging)", "test": "ED50 for pre-blocking of GluN2B radioligand uptake in rat whole brain (PET)", "assay_type": "in vivo", "conditions": "radioligand ^11C-(−)-NR2B-Me, AUC 20-90 min", "description": "For radioligand injection, a polyethylene catheter (PE 10) was inserted into the penile vein of a male rat and then secured with tissue adhesive and tape. […] Body temperature was monitored with a rectal probe. All PET scans were performed on a microPET Focus 220 scanner (Siemens Medical Solutions) (7,8). Data were acquired in listmode and reconstructed with Fourier rebinning + 2D filtered backprojection. A transmission scan was acquired before radioligand injection for attenuation correction. Dynamic scanning began at the time of a one-minute intravenous bolus injection of the radioligand under study (55 ± 19 MBq; volume 0.2 to 1.0 mL). The injected mass dose was 3 ± 1 nmol/kg. Challenge agents were administered intravenously 10 minutes before the radioligand for pre-blocking studies or 10 minutes after the radioligand for displacement studies. Tomographic images were analyzed with pixel-wise modeling computer software (PMOD 2.6; PMOD Group). Regions-of-interest in the brain were delineated, and time-activity curves calculated as SUV versus time.\nPre-blocking and displacement experiments were performed to assess radioligand target engagement and radioligand selectivity in vivo. […] Areas-under the curve (AUCs) from time-activity curves between 20 and 90 minutes were calculated for each radioligand. […] Numerical data are expressed as mean ± S.D. for n>2, or as mean and range for n = 2."}
{"substance": "(+)-SKF10047", "values": [{"measurement": "ED50 in rat whole brain in vivo ^11C-(−)-NR2B-Me", "result": "> 1000", "unit": "nmol/kg"}]}
